A selection: hits, their analogues and other compounds. The true share with any hit is near 1.3%.
EWS-Fli block – blocks EWS/Fli oncoprotein-driven transcription | A673 NR0B1-luciferase reporter, viability-normalised | 350,000 tested, 0.67% active | AID 651661 | inhibition, % at 12.6 µM;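 active means mean inhibition of at least 50% after viability correction, with every replicate also passing that limit; inconclusive means mean reaches 50% but only one of two replicates passes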;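 further: firefly luciferase signal divided by Alamar Blue viability fluorescence both relative to DMSO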
LGR2 antag – blocks bursicon-induced cAMP signaling via Drosophila LGR2; inhibition, % at 9.99 µM; HEK293 LGR2, CRE-luciferase, bursicon-stimulated, 4 h; 380,000 tested, 0.35% active;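 active means drop in luminescence signal, shown as inhibition above about 50% in the replicate tests, limit read from the data, passing the limit was not always enough; inconclusive means probably only some replicates passing the limit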;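 further: agonist challenge used bursicon conditioned medium at about half maximal strength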
PglD DTNB – inhibitors of Campylobacter jejuni PglD acetyltransferase. AID 602405. 360,000 tested, 0.098% active. purified PglD enzyme, DTNB colorimetric CoA detection. inhibition, % at 12.5 µM; in the data active means inhibition above about 16%, passing the limit was not always enough; inconclusive means no clear call, values can overlap the other calls
F508del corr – correctors of CFTR F508del function in bronchial epithelial cells. CFBE cells, YFP halide quenching; stimulated with forskolin plus potentiator P3; % fluorescence drop versus neutral controls. activity (quench increase), % at 7.58 µM. 350,000 tested, 0.36% active;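 active means mean added fluorescence quench of at least 8% versus neutral control, with both replicates also reaching 8%; inconclusive means only one of the mean or replicate conditions met; inactive means mean below 8% and not both replicates reaching 8%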;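 further: cells transiently co-express mutant CFTR-F508del with the halide-sensitive YFP; corrector assay measuring rescue of mutant channel to the surface after 24 h compound exposure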
miR122 inh – blocks miR-122 activity in Huh7 sensor cells. Huh7 miR-122 Renilla luciferase sensor, 48 h; neutral wells = 0, positive control = 100. activation (reporter increase), % at 12.5 µM. 340,000 tested, 0.3% active. AID 602342;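 active means mean replicate activation score at least 90 and every replicate individually at or above 90; inconclusive means only one of the two criteria met; inactive means neither criterion met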;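 further: higher luciferase means less miR-122 activity so hits act as miR-122 inhibitors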
UUG fidelity – yeast start codon fidelity modulation | S. cerevisiae UUG-firefly luciferase reporter, luminescence/redox ratio | activity score, % at 18.7 µM | hit rate 0.13% among 350,000 | AID 602363;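 active means replicate mean at a twofold rise or more, about +100% in these data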;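 further: firefly luciferase made from a UUG start codon reports start codon fidelity; reporter light over untreated wells divided by growth signal over untreated wells; some hits fall short of that in this replicate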
The depositor's hits bear a star; ? = inconclusive; · = no result; [ ] = remark or other dose.

[1] C[C@H]1CN([C@@H](C)CO)C(=O)c2ccccc2-c2ccccc2CO[C@H]1CN(C)S(=O)(=O)c1ccc(C(F)(F)F)cc1
[2] O=C(/C=C/c1cccc([N+](=O)[O-])c1)c1ccc([N+](=O)[O-])o1
[3] Cc1ccccc1/C=C/C(=O)c1ccc([N+](=O)[O-])o1
[4] CC1(C)CC2(CC(C)(C)N1)OC(=O)N1CCc3ccccc3C12C (configuration not stated)
[5] COc1cc(OC)cc(C(=O)c2c(C)c(C#N)c3ccccn23)c1
Compound | 1 | 2 | 3 | 4 | 5
EWS-Fli block | 10 | 81* | 71* | -3 | 58*
LGR2 antag | 19 | 32 | 92* | 7 | -1
PglD DTNB | 1 | 7 | · | 3 | -2
F508del corr | -1 | 0 | -3 | -2 | 17*
miR122 inh | · | · | · | -1 | -1
UUG fidelity | · | -19 | · | -21 | -9

[6] Clc1ccc(CN2CCc3c([nH]c4ccccc34)C2)cc1Cl
[7] CN1CCN(c2ccc(NC(=S)NC(=O)c3cccc4ccccc34)cc2)CC1
[8] CC(=O)C[C@H]1c2cc(C(F)(F)F)ccc2S(=O)(=O)N1C1CCCCC1
[9] Cn1cccc1/C=C1\SC(=O)N(c2ccc(O)cc2)C1=O
[10] COc1cccc(S(=O)(=O)Nc2ccc3c(c2)[C@H]2C[C@H](CC(=O)NCc4ccc(Cl)cc4)O[C@@H](CO)[C@H]2O3)c1
Compound | 6 | 7 | 8 | 9 | 10
EWS-Fli block | 57* | 65* | 9 | · | 3
LGR2 antag | 20 | 9 | 3 | -56 | -1
PglD DTNB | -2 | 4 | 2 | 1 | 1
F508del corr | 1 | 0 | -3 | · | -1
miR122 inh | 4 | 2 | 118* | -5 | -2[16.7 µM]
UUG fidelity | -14 | -23 | -14 | -14 | ·

[11] CN(C)c1ccc2c(c1)[C@@H]1C[C@@H](CC(=O)NCc3ccc(-c4ccccc4)cc3)O[C@@H](CO)[C@@H]1O2
[12] CS(=O)(=O)Nc1ccc2c(c1)[C@@H]1C[C@@H](CC(=O)NCc3ccc(-c4ccccc4)cc3)O[C@@H](CO)[C@@H]1O2
[13] COc1cccc(S(=O)(=O)Nc2ccc3c(c2)[C@@H]2C[C@@H](CC(=O)NCc4ccc(Cl)cc4)O[C@@H](CO)[C@@H]2O3)c1
[14] CS(=O)(=O)Nc1ccc2c(c1)[C@@H]1C[C@@H](CC(=O)NCc3ccc(Oc4ccccc4)cc3)O[C@@H](CO)[C@@H]1O2
[15] O=C(COC(=O)c1cccc(Cl)c1Cl)NCCN1C(=O)CSC1=O
Compound | 11 | 12 | 13 | 14 | 15
EWS-Fli block | 55* | 57* | 55* | 55* | 15
LGR2 antag | -19 | 8 | -6 | -28 | ·
PglD DTNB | · | -1 | -4 | -3 | ·
F508del corr | 7 | 3 | 5 | 7 | ·
miR122 inh | · | 69[16.7 µM] | 74[16.7 µM] | -3[16.7 µM] | ·
UUG fidelity | · | 12 | 7 | 1 | ·

[16] O=C(C[C@@H]1C[C@@H]2c3cc(NC(=O)c4ccc5c(c4)OCO5)ccc3O[C@@H]2[C@@H](CO)O1)NCc1ccc(Oc2ccccc2)cc1
[17] CS(=O)(=O)Nc1ccc2c(c1)[C@@H]1C[C@@H](CC(=O)NCc3ccc(Oc4ccccc4)cc3)O[C@H](CO)[C@@H]1O2
[18] O=C(C[C@H]1C[C@H]2c3cc(NC(=O)c4ccc5c(c4)OCO5)ccc3O[C@H]2[C@@H](CO)O1)NCc1ccc(Oc2ccccc2)cc1
[19] O=C(Nc1ccccc1F)N1CCCCN2[C@H](CO)[C@H](c3ccc(C#Cc4ccccc4)cc3)[C@H]2C1
[20] COc1ccc(NC(=O)C(=O)c2cn(CC(=O)N3CCCC3)c3ccccc23)cc1OC
Compound | 16 | 17 | 18 | 19 | 20
EWS-Fli block | ? | 53* | -14 | · | 7
LGR2 antag | 68* | -12 | -16 | -2 | -5
PglD DTNB | -2 | 1 | 1 | -6 | -1
F508del corr | 2 | 1 | -2 | -3 | 9.3*
miR122 inh | 8[16.7 µM] | -3[16.7 µM] | -2[16.7 µM] | -7[16.7 µM] | 8
UUG fidelity | · | -3 | · | 24 | -13

[21] N#CC(C#N)=NNc1ccc2cn[nH]c2c1
[22] C[C@H](CO)N1C[C@H](C)[C@H](CN(C)C)OCc2ccccc2-c2ccccc2C1=O
[23] O=C(Cc1ccsc1)OCC(=O)c1ccccc1
[24] O=C(COC(=O)Cc1ccsc1)NCc1ccccc1
[25] Cc1c(C(=O)NCCN(C)C)n(C)c(=O)c2ccccc12
Compound | 21 | 22 | 23 | 24 | 25
EWS-Fli block | -2 | -6 | -6 | · | 1
LGR2 antag | 82* | 22 | 8 | 14 | -5
PglD DTNB | · | -1 | 1 | · | -3
F508del corr | 5 | -2 | 14* | · | 1
miR122 inh | · | · | 1 | -2 | -5
UUG fidelity | · | · | 1 | · | -7

Four successive records out of the list so far, quoted:
[22] C[C@H](CO)N1C[C@H](C)[C@H](CN(C)C)OCc2ccccc2-c2ccccc2C1=O
[23] O=C(Cc1ccsc1)OCC(=O)c1ccccc1
[24] O=C(COC(=O)Cc1ccsc1)NCc1ccccc1
[25] Cc1c(C(=O)NCCN(C)C)n(C)c(=O)c2ccccc12
Compound | 22 | 23 | 24 | 25
EWS-Fli block | -6 | -6 | · | 1
LGR2 antag | 22 | 8 | 14 | -5
PglD DTNB | -1 | 1 | · | -3
F508del corr | -2 | 14* | · | 1
miR122 inh | · | 1 | -2 | -5
UUG fidelity | · | 1 | · | -7

(continued)
[26] Cc1c(/C(O)=C2/C(=O)C(=O)N(Cc3cccnc3)C2c2ccccn2)cnn1-c1ccccc1 (configuration not stated)
[27] Cc1c(/C(O)=C2/C(=O)C(=O)N(Cc3cccnc3)C2c2cccs2)cnn1-c1ccccc1 (configuration not stated)
[28] C=C1C(=O)O[C@@H]2[C@H]3O[C@]3(C)CC/C=C(\C)CC[C@@H]12
[29] C=C1C(=O)O[C@H]2C[C@H]1[C@@H](OC(C)=O)C/C(C)=C/CC/C(C)=C\CC[C@]2(C)O
[30] CCc1ccc(C(=O)Nc2nc3ccccc3[nH]2)cc1
Compound | 26 | 27 | 28 | 29 | 30
EWS-Fli block | 27 | · | 2 | 56* | 75*
LGR2 antag | 87* | · | 20 | · | 92*
PglD DTNB | · | 0 | 0 | -6 | -4
F508del corr | · | · | 0 | -3 | 0
miR122 inh | 0 | -9 | -10 | -11 | -2
UUG fidelity | · | -42 | -8 | -13 | -78

[31] CC(C)Oc1ccc(C(=O)Nc2nc3ccccc3[nH]2)cc1
[32] COc1ccc(Cl)cc1C(=O)Nc1nc2ccccc2[nH]1
[33] O=C(Nc1nc2ccccc2[nH]1)c1ccc(F)cc1
[34] COc1ccc(S(=O)(=O)Nc2ccc3c(c2)C(=O)N([C@@H](C)CO)C[C@H](C)[C@H](CN(C)C(=O)Nc2ccccc2)OCCCC[C@@H](C)O3)cc1
[35] C[C@H](CO)N1C[C@H](C)[C@H](CN(C)C(=O)Cc2ccccc2)OCCCC[C@H](C)Oc2ccc(NS(=O)(=O)c3ccccc3)cc2C1=O
Compound | 31 | 32 | 33 | 34 | 35
EWS-Fli block | 81* | 72* | -42 | 5 | 60*
LGR2 antag | 94* | 79* | -26 | 6 | 18
PglD DTNB | -4 | 2 | · | 1 | -2
F508del corr | 2 | 1 | 0 | 2 | 0
miR122 inh | 2 | -1 | -7 | 120*[16.7 µM] | -7[16.7 µM]
UUG fidelity | -78 | -72 | -55 | 13 | -5

[36] COc1ccc(NC(=O)N(C)C[C@@H]2OCCCC[C@H](C)Oc3ccc(NS(=O)(=O)c4ccc(C)cc4)cc3C(=O)N([C@H](C)CO)C[C@H]2C)cc1
[37] Cn1cnc([N+](=O)[O-])c1S(=O)(=O)Oc1ccc(Cl)cc1
[38] Cn1cnc([N+](=O)[O-])c1S(=O)(=O)Oc1cccc2ccccc12
[39] COc1cc(S(=O)(=O)NC2CCCCC2)ccc1Cl
[40] Cc1cccc(S(=O)(=O)NC2CCCCCCC2)c1
Compound | 36 | 37 | 38 | 39 | 40
EWS-Fli block | 11 | 64* | 50 | · | 3
LGR2 antag | 1 | -9 | 18 | 12 | 0
PglD DTNB | 17* | 3 | -3 | 7 | -1
F508del corr | -4 | -5 | -6 | · | 2
miR122 inh | -12[16.7 µM] | · | 2 | 121* | 159*
UUG fidelity | 17 | -32 | -6 | -33 | 0

[41] COc1ccc(S(=O)(=O)NC2CCCCC2)cc1C
[42] CSc1nc2ccc(S(=O)(=O)NC3CCCCC3)cc2s1
[43] COc1ccc(S(=O)(=O)NC2CCCC2)cc1NC(C)=O
[44] CSc1nc2ccc(S(=O)(=O)N3CCCCC3)cc2s1
[45] CCNS(=O)(=O)c1cc(Br)ccc1OC
Compound | 41 | 42 | 43 | 44 | 45
EWS-Fli block | 14 | · | · | · | ·
LGR2 antag | 2 | · | 3 | -10 | ·
PglD DTNB | 6 | · | 5 | -4 | 2
F508del corr | 2 | · | 1 | · | ·
miR122 inh | 137* | 175* | · | -10 | 248*
UUG fidelity | 10 | · | -9 | -13 | -6
